This note sets out measurements from ChEMBL document CHEMBL1144921, “14-amino, 14-alkylamino, and 14-acylamino analogs of oxymorphindole. Differential effects on opioid receptor binding and functional profiles” (J Med Chem, 2003).

Chains of the proteins cited; added tags and fusions are not shown.
UniProt P41143, whole entry: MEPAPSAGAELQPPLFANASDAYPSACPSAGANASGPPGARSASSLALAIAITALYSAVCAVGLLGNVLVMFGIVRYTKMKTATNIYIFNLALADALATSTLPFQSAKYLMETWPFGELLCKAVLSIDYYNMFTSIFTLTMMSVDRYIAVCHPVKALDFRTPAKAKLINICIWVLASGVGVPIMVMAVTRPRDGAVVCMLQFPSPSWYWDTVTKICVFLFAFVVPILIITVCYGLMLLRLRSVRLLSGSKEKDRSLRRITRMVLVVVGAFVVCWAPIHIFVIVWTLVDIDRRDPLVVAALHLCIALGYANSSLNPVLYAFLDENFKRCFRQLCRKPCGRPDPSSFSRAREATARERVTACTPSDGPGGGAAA

The experiment concerns the target Delta-type opioid receptor (Homo sapiens, UniProt P41143). Put plainly: Stimulation of [35S]GTP-gamma-S, binding at human recombinant Opioid receptor delta 1 transfected into CHO cells. The format is functional, cell-based.

The EC50 is the concentration needed to bring the measured effect to its halfway point. Regarding `C[C@@H](NC(=O)[C@@H](N)Cc1ccc(O)cc1)C(=O)NCC(=O)N(C)[C@@H](Cc1ccccc1)C(=O)NCCO` [DAMGO], the 50% effective concentration (EC50) was over 10 µM.
